# Measurements published in patent US20170235917A1, “SYSTEMS AND METHODS FOR MONITORING AND CONTROLLING A CARD[…] OF A SUBJECT” (THE GENERAL HOSPITAL CORPORATION, priority 2014, published 2017).
# Conditions: X = H (HR); mean ± SD, five piglets
# Protocol: Five neonatal Yorkshire Duroc piglets of 10+/−3 d of age weighting 2.4+/−0.6 kg were pre-anesthetized with ketamine (33 mg/kg) and atropine (0.05 mg/kg), intubated, and anesthetized using 1.5-3.0% isoflurane while mechanically ventilated. Core body temperature was kept at 38+/−0.5° C. BP, HR, arterial O2 saturation, end-tidal CO2, fraction of inspired O2, and pulmonary compliance were continuously monitored. HR beyond 250 bpm was captured using the PC-Vet wireless ECG system or direct counting. The animals received intravenous heparin (200 units/kg/h), physiologic saline (10 mL/kg/h), and 10 g/dL of dextrose-water to adjust serum glucose levels using Genie Plus syringe pumps validated for stability of infusion rate. Serum electrolytes, base excess (−6 to +6), pH (7.20-7.45), partial arterial O2 pressure (80-120 mmHg) and partial arterial CO2 pressure (35-45 mmHg), and arterial O2 saturation (90-100%) were maintained in the target ranges using sodium bicarbonate, potassium chloride, lactated Ringer's solution, and ventilatory changes, respectively. […] The baseline measurements were recorded after a 15-min postsurgical stabilization period, followed by the escalation of dose, and a 15-min washout period after the discontinuation of the medication. […]
structure (smiles),measurement,value
CNC[C@H](O)c1ccc(O)c(O)c1 [epinephrine],tD (delay),25.1 ± 24.8 s
